Earlier results as cited in patent publication US11648313B2, “Multimodal therapy for cancer cell destruction” (Southeast Missouri State University, priority 2015, dated 2023).

Test system: SH-SY5Y cells
Conditions: long-term exposure

interferonβ
activation of PI3K-AKT pathway: decreased activation of P13K-AKT pathway
